From PubChem
dFosB activator: enhances mouse delta FosB homodimer DNA binding | P13346 | purified delta FosB, TAMRA-CDK5 oligo fluorescence polarization; percent of positive-control signal above neutral wells | activation, % at 25 µM | 0.99% of 340,000 active;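 active = mean activation above about 17%, with every replicate also reaching it, limit read from the data, passing the limit was not always enough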
Yeast UUG start: alters start codon recognition fidelity in yeast. 350,000 tested, 0.13% active. activity score, % at 18.7 µM. S. cerevisiae UUG-firefly luciferase reporter, luminescence/redox ratio;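 active = replicate mean at a twofold rise or more, about +100% in these data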;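 also: firefly luciferase made from a UUG start codon reports start codon fidelity; reporter light over untreated wells divided by growth signal over untreated wells; some hits fall short of that in this replicate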
DYRK1A inh: blocks rat Dyrk1A kinase activity; Q63470; ADP-Glo luminescence, NFATc1 peptide; inhibition, % at 12.5 µM; 0.43% of 310,000 active; AID 504441; in the data active = inhibition above about 50%;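 also: plate controls were vehicle with enzyme for no effect and no enzyme for full effect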
CAL PDZ FP-1: inhibitors of human CAL PDZ peptide binding. AID 602252. inhibition, % at 24.9 µM. Q9HD26. purified CAL PDZ, TMR-peptide fluorescence polarization, 1 h. 0.92% of 300,000 active;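 active = mean inhibition of at least 30% with at least half of replicates also reaching 30%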;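 also: 0% = DMSO neutral control and 100% = excess unlabeled competitor peptide PRC23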
CDK5 p35 inh: CDK5/p35 (human) kinase inhibition | Q00535+Q15078 | Recombinant CDK5/p35, ADP-Glo luminescence, 60 min | inhibition, % at 10 µM | 0.01% of 330,000 active;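 active = highest replicate inhibition of at least 50% and at least 75% of replicates reaching 50%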;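 also: plate controls were DMSO neutral control for no effect and GW8510 at 10 µM for full effect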
CAL PDZ FP-2: inhibitors of human CAL PDZ peptide binding | inhibition, % at 20 µM | purified CAL PDZ, TMR-peptide fluorescence polarization, 1 h | Q9HD26 | AID 504414 | 0.02% of 330,000 active;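 active = highest replicate inhibition of at least 40%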;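 also: plate controls were DMSO neutral control wells for no effect and unlabeled competitor peptide control wells for full effect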
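System: tagged CAL PDZ domain. Schedule: 1 h room-temperature incubation prior to read. Signal: fluorescence polarization (mP). Measure: percent inhibition from loss of millipolarization.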
Starred values were filed as active, the others as inactive; nt = no result; + = active, no number. Only some compounds are listed: those with a hit (about 1.7% of all), similar ones and a draw of the others.

Under each structure – dFosB activator, Yeast UUG start, DYRK1A inh, CAL PDZ FP-1, CDK5 p35 inh, CAL PDZ FP-2
> COC(=O)c1ccc(CNC(=O)c2c3c(nc4ccccc24)CCN(Cc2ccccc2)C3)cc1
  -6, -6, -5, -3, 1, 0
> C[C@@H]1CN([C@H](C)CO)C(=O)c2cccc(NC(=O)c3nc4ccccc4s3)c2O[C@H]1CN(C)Cc1ccc(C(=O)Nc2ccccc2N)cc1
  nt, -7, nt, nt, nt, nt
> CCOC(=O)/C=C1\SCC(=O)N1Cc1nnc(-c2ccccc2Br)o1
  -16, 0, 8, 60*, -3, -2
> Cc1ccc2c(CN3CCCc4ccccc43)cc(=O)oc2c1C
  4, 14, 10, 49*, 0, nt
> COc1ccc(C(=O)COC(=O)CN2C(=O)c3ccccc3C2=O)c(OC)c1
  19*, -21, -6, nt, -2, -1
> CCOC(=O)CN1C(=O)c2ccccc2C1=O
  1, -8, 2, 51*, 1, 1
> CCCOC(=O)CN1C(=O)c2ccccc2C1=O
  -8, -31, -3, -3, 1, -3
> COc1ccc(C(=O)COC(=O)Cn2c(C)csc2=O)c(OC)c1
  -2, -19, -2, -1, 0, -2
> O=C(CN1C(=O)c2ccccc2C1=O)N1CCN(c2ccccc2)CC1
  5, -8, -1, 40*, 0, -1
> C/C=C/c1cnc2c(c1)C(=O)N([C@@H](C)CO)C[C@@H](C)[C@H](CN(C)Cc1ccc3c(c1)OCO3)O2
  nt, -2, nt, nt, nt, nt
> COC(=O)c1sccc1NC(=S)N1CCN(C)CC1
  -1, nt, nt, +, 2, 0
> CCN1CCN(C(=S)Nc2ccsc2C(=O)OC)CC1
  7, nt, -2, -2, -2, -1
> CN1c2ccc(-c3ccccc3F)cc2[C@@H]2[C@@H](CCN2C(=O)CN2CCOCC2)[C@@H]1CO
  nt, 4, nt, nt, nt, nt
> COC(=O)C(C(=O)OC)=C(/C=C/C=C/N(C)C)N(C)C
  -8, 5, -8, -6, -1, nt
> COC(=O)C(C(=O)OC)=C(/C=C/N(C)C)N(C)C
  7, -13, 3, 46*, -1, 7
> O=C(CN1CCOCC1)N[C@@H]1CC[C@H](CCNC(=O)C2CCCC2)O[C@@H]1CO
  nt, -14, nt, nt, nt, nt
> COc1ccc(CN2C[C@H](O)COC[C@H]3O[C@@H](CC(=O)N4CCc5ccccc5C4)CC[C@@H]32)cc1
  nt, 2, nt, nt, nt, nt
> O=C(CCc1c[nH]c2ccccc12)Nc1ccc(S(=O)(=O)Nc2ncccn2)cc1
  -4, -4, -4, 33*, -1, 0
> COc1cccc(/C=N/Nc2nc(Nc3ccccc3)nc(-n3nc(C)cc3C)n2)c1O
  41*, nt, -2, -4, -1, -60
> O=C(NCCC1=CCCCC1)C1CCC(=O)N(Cc2cccc(C(F)(F)F)c2)C1 (configuration not stated)
  6, 25, -6, 36*, -1, 0
> COc1cccc(CN2CC(C(=O)NCCc3ccccc3C(F)(F)F)CCC2=O)c1 (configuration not stated)
  -8, 13, -2, 57*, -2, -1
> COc1cccc(CCNC(=O)C2CCC(=O)N(Cc3cccc(OC)c3)C2)c1 (configuration not stated)
  -1, -2, 2, 0, 2, -2
> O=C(C[C@@H]1CC[C@@H]2[C@H](COC[C@@H](O)CN2Cc2cccc(C(F)(F)F)c2)O1)NCc1ccc(F)cc1
  nt, 3, nt, nt, nt, nt
> CN1C(=O)c2cc(NC(=O)c3ccccc3)ccc2OC[C@H]2O[C@H](CC(=O)NCC3CC3)CC[C@@H]21
  nt, 11, nt, nt, nt, nt
> COc1ccc(N(C(=O)c2snc(C(N)=O)c2N)C(C(=O)NCc2ccccc2)c2ccc(F)cc2)c(OC)c1 (configuration not stated)
  25*, -14, -2, -7, -2, -3
> O=C(CCN1CCCCC1)NCC[C@@H]1CC[C@@H](NC(=O)Nc2ccc(Cl)cc2)[C@H](CO)O1
  nt, 11, nt, nt, nt, nt
> O=C(Nc1cccc(S(=O)(=O)N2CCOCC2)c1)c1ccccn1
  -5, nt, nt, 75*, 1, 1
> C[C@@H]1CN([C@@H](C)CO)C(=O)c2cc(NS(=O)(=O)c3ccc(F)cc3)ccc2O[C@@H](C)CCCCO[C@@H]1CN(C)Cc1ccncc1
  nt, -1, nt, nt, nt, nt
> Oc1cccc(Nc2c3ccccc3nc3ccccc23)c1
  65*, -2, 6, 2, 1, 2
> c1cncc(Nc2c3ccccc3nc3ccccc23)c1
  30*, -7, 6, 7, -1, -1
> O=C(O)c1cccc(Nc2nc(-c3ccc([N+](=O)[O-])cc3)nc3ccccc23)c1
  -10, -21, -6, -1, 1, 0
> O=[N+]([O-])c1ccc(-c2nc(Nc3cccc(O)c3)c3ccccc3n2)cc1
  -2, -11, 25, 78*, 1, nt
> O=C(O)c1ccc(Nc2c3ccccc3nc3ccccc23)cc1
  2, -27, 6, -3, 0, 0
> Cc1ccc(-c2nc(Nc3cccc(O)c3)c3ccccc3n2)cc1
  22*, -10, 64*, -3, 1, -2
> C[C@@H]1CN([C@H](C)CO)C(=O)c2cc(C#Cc3ccncc3)cnc2O[C@@H]1CN(C)C(=O)CN(C)C
  nt, -8, nt, nt, nt, nt
> O=C(Nc1ccc(C(F)(F)F)cc1)N[C@@H]1C=C[C@H](CC(=O)N2CCCCC2)O[C@H]1CO
  nt, 0, nt, nt, nt, nt
> CN(C)C1(CNC(=O)Nc2ccccc2)CCCCC1
  3, -12, -3, -4, 1, -2
> CN(C)C1(CNC(=S)Nc2ccccc2C(F)(F)F)CCCCC1
  -5, nt, 7, 61*, -1, 0
> COc1ccc(-c2ccc3c(c2)[C@H]2[C@H](CCN2C(=O)Cc2cccnc2)[C@H](CO)N3C)cc1
  nt, 6, nt, nt, nt, nt
> COc1ccc(NC(=O)Nc2ccc3c(c2)[C@@H]2C[C@H](CC(=O)NCC4CC4)O[C@@H](CO)[C@@H]2O3)cc1
  nt, -4, nt, nt, nt, nt
> CS(=O)(=O)Nc1ccc2c(c1)[C@H]1C[C@@H](CC(=O)NCc3ccc(-c4ccccc4)cc3)O[C@H](CO)[C@H]1O2
  nt, 2, nt, nt, nt, nt
> Cc1cc(O)c(C=O)c2c1C(=O)Oc1c(CO)c(O)c3c(c1O2)C(O)OC3=O (configuration not stated)
  -16, 4, 51*, -3, 7, 2
> Cc1cc(O)c(CN(C)C)c2c1C(=O)/C(=C/c1ccco1)O2
  -6, -12, 10, -4, 0, 0
> O=C(c1cccc(F)c1F)N1CCCC1
  -5, -3, 24, nt, -2, 0
> Cc1cc(F)c(F)cc1C(=O)N1CCCC1
  3, nt, -1, 53*, 0, 0
> CC1CCN(C(=O)CCNC(=O)c2ccccc2Cl)CC1
  -1, -20, -2, -2, -3, 0
> O=C(NCCC(=O)N1CCCC1)c1ccccc1Cl
  2, -7, 1, 39*, 0, 0
> Cc1ccccc1N1CCN(C(=O)C2CCC(=O)N(C3CCCC3)C2)CC1 (configuration not stated)
  -8, -9, 0, 79*, -1, 0
